Experimental data taken from patent US11484601B2, “Targeting M2-like tumor-associated macrophages by using melittin-based proapoptotic peptide” (TWI[…]., priority 2018, dated 2022).

Assays:
LLC tumor cells = assay: Cell cycle via PI staining, flow cytometry; type: cell-based, mouse; conditions: 0.1 to 1 μM
Method: (§1) More specifically, dKLA (SEQ ID NO: 2), MEL (SEQ ID NO: 1), MEL-dKLA (SEQ ID NO: 3; […]-d[KLAKLAKKLAKLAK]) peptide and 5-carboxyl tetramethylrhodamine (TMR)-conjugated dKLA, MEL and MEL-KLA peptides were purchased from GenScript (Piscataway, N.J., USA). TMR was conjugated with the amino group located at the N-terminal of the peptide. Regarding all of the peptides, 95% or greater purified peptides were used. Murine Lewis lung carcinoma (LLC) cells and macrophage RAW264.7 of mice were cultured in Dulbecco's modified Eagle's medium (DMEM; Welgene, Korea) to which 10% heat-inactivated fetal bovine serum (Welgene), 100 U/mL penicillin and 100 μg/mL streptomycin (Invitrogen, CA, USA) were added. Macrophage (RAW264.7) differentiated into M2-type was treated with IL-4 and IL-13 in the medium for 24 hours. After the treatment, the cells were cultured in a state in which serum was insufficient for 48 hours. M1-type macrophage was treated with 1 ng/mL of LPS for 24 hours to induce differentiation.
More specifically, cells were fixed with 70% cold ethanol and stored at 20° C. for 24 hours. Then, propidium iodide (PI) was added to PBS containing 0.1% Triton X-100 and 20 μg/ml RNase such that 50 μg/ml concentration was achieved. The mixture was applied to the cell. Measurement was done using a flow cytometry method.

[1] = tested on: M2 macrophage (RAW264.7 differentiated into M2-type with IL-4 and IL-13); assay: MTS cell viability assay, M2-type macrophage; type: cell-based, mouse; conditions: 24 hours, read-out: half-maximal inhibitory concentration (IC50) against M2 macrophage
Method: as §1
The cell viability test was measured via the MTS assay. RAW264.7 macrophage was differentiated into M1-type or M2-type macrophage which was inoculated onto a 96-well plate at 3×10^4 cells/well. The next day, the macrophage was treated with each of PBS, dKLA, MEL and MEL-dKLA. […] Then, fluorescence was measured at 490 nm to measure cell viability. […]

[2] = MTS cell viability assay, M1-type macrophage; type: cell-based; conditions: mouse, RAW264.7 macrophages differentiated into M1-type with LPS, 0.6 to 0.8 μM
Method: as §1
The cell viability test was measured via the MTS assay. RAW264.7 macrophage was differentiated into M1-type or M2-type macrophage which was inoculated onto a 96-well plate at 3×10^4 cells/well. The next day, the macrophage was treated with each of PBS, dKLA, MEL and MEL-dKLA. […] Then, fluorescence was measured at 490 nm to measure cell viability.

Structure (SMILES): CC[C@H](C)[C@H](NC(=O)CN)C(=O)NCC(=O)N[C@@H](C)C(=O)N[C@H](C(=O)N[C@@H](CC(C)C)C(=O)N[C@@H](CCCCN)C(=O)N[C@H](C(=O)N[C@@H](CC(C)C)C(=O)N[C@H](C(=O)N[C@H](C(=O)NCC(=O)N[C@@H](CC(C)C)C(=O)N1CCC[C@H]1C(=O)N[C@@H](C)C(=O)N[C@@H](CC(C)C)C(=O)N[C@H](C(=O)N[C@@H](CO)C(=O)N[C@@H](Cc1c[nH]c2ccccc12)C(=O)N[C@H](C(=O)N[C@@H](CCCCN)C(=O)N[C@@H](CCCNC(=N)N)C(=O)N[C@@H](CCCCN)C(=O)N[C@@H](CCCNC(=N)N)C(=O)N[C@@H](CCC(N)=O)C(=O)N[C@@H](CCC(N)=O)C(=O)NCC(=O)NCC(=O)NCC(=O)NCC(=O)N[C@@H](CO)C(=O)N[C@H](CCCCN)C(=O)N[C@H](CC(C)C)C(=O)N[C@H](C)C(=O)N[C@H](CCCCN)C(=O)N[C@H](CC(C)C)C(=O)N[C@H](C)C(=O)N[C@H](CCCCN)C(=O)N[C@H](CCCCN)C(=O)N[C@H](CC(C)C)C(=O)N[C@H](C)C(=O)N[C@H](CCCCN)C(=O)N[C@H](CC(C)C)C(=O)N[C@H](C)C(=O)N[C@H](CCCCN)C(=O)O)[C@@H](C)CC)[C@@H](C)CC)[C@@H](C)O)[C@@H](C)O)C(C)C)C(C)C [MEL-dKLA]
- cytotoxicity against LLC tumor cells (LLC tumor cells): did not exhibit cytotoxicity
- IC50 [1]: 850 nM
- viability at 24 h [2]: 66 to 86%
